The numbers were not newly measured in patent publication US9433683B2, “Reversible pegylated drugs” (Yeda Research and Development Co., Ltd., priority 2003, dated 2016), which cites them from elsewhere.

For the data set, the system named is hepatitis C. Particulars: hepatitis C patients; cited from earlier work.

Turning to “12 kDa-PEG-IFNα2: non-reversible 12 kDa-PEG-IFNα2 conjugate, therapeutically approved in 2001”, the “sustained anti-viral response rate” value is reported as 24%.
In the case of IFNα2: Non-glycosylated human IFN-α2, the “sustained anti-viral response rate” value is recorded as 12%.
